Source: ChEMBL document CHEMBL1133341, “ORL1 receptor ligands: structure-activity relationships of 8-cycloalkyl-1-phenyl-1,3,8-triaza-spiro[4.5]decan-4-ones” (Bioorg Med Chem Lett, 2000)

Key:
[1] = Ratio of binding affinity for mu receptors to that of rat ORL-1
[2] = Ratio of binding affinity for kappa receptors to that of rat ORL-1

Row | Structure (SMILES) | Selectivity [1] | Selectivity [2]
1 | O=C1NCN(c2ccccc2)C12CCN(C1CCCCCCCCCC1)CC2 | 0.4 | 1.7
2 | O=C1NCN(c2ccccc2)C12CCN(C1CCCCCCCCCCC1)CC2 | 0.3 | 3.1
3 | O=C1NCN(c2ccccc2)C12CCN(C1CCCCCCCCC1)CC2 | 8.2 | 26
4 | CCC[C@H]1CC[C@@H](N2CCC3(CC2)C(=O)NCN3c2ccccc2)CC1 | 3.6 | 29
5 | CC(C)(C)[C@H]1CC[C@@H](N2CCC3(CC2)C(=O)NCN3c2ccccc2)CC1 | 2 | 11
6 | CC(C)[C@H]1CC[C@H](N2CCC3(CC2)C(=O)NCN3c2ccccc2)CC1 | 1.8 | 6.8
7 | O=C1NCN(c2ccccc2)C12CCN(C1CCCCCCCC1)CC2 | 13 | 16
8 | CC(C)[C@H]1CC[C@@H](N2CCC3(CC2)C(=O)NCN3c2ccccc2)CC1 | 40 | 330
9 | O=C1NCN(c2ccccc2)C12CCN([C@@H]1Cc3cccc4cccc1c34)CC2 | 9.8 | 49
10 | C[C@H]1CC[C@@H](N2CCC3(CC2)C(=O)NCN3c2ccccc2)CC1 | 9.1 | 8
11 | O=C1NCN(c2ccccc2)C12CCN(C1CCCCCCC1)CC2 | 7 | 4.8
12 | O=C1NCN(c2ccccc2)C12CCN([C@H]1CC[C@@H](C3CCCCC3)CC1)CC2 | 1 | 19
13 | O=C1NCN(c2ccccc2)C12CCN(C1CCCCC1)CC2 | 6.3 | 4
14 | O=C1NCN(c2ccccc2)C12CCN(C1CCCCCC1)CC2 | 11 | 2.5
